{
  "sequences": {"note": "Amino acid sequences for entries named in this document (tags omitted).", "UniProt Q96SB4, whole entry": "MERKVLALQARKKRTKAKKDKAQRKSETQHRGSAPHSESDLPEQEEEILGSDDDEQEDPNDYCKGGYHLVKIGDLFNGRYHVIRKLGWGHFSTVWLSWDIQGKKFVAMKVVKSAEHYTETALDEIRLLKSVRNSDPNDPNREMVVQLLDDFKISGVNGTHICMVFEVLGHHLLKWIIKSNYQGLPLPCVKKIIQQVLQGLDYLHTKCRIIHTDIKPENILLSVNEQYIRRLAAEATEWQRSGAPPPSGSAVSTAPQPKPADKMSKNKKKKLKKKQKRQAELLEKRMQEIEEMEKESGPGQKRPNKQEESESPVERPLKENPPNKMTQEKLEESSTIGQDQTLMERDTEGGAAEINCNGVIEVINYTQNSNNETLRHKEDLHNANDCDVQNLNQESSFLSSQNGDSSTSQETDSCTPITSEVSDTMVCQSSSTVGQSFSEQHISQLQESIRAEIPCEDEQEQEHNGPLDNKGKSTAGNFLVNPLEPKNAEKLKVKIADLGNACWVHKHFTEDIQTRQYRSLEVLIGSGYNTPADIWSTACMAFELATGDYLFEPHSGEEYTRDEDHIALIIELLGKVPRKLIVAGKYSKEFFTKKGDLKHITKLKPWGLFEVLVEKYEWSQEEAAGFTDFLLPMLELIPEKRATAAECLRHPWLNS"},
  "source": "paper PMC7725506",
  "about": "“Functional Diversification of SRSF Protein Kinase to Control Ubiquitin-Dependent Neurodevelopmental Signaling” (Developmental Cell, 2020)",
  "key": {"RNF12 phospho-Ser214": {"tested_on": "RNF12 phospho-Ser214", "assay": "RNF12 SR-motif phosphorylation in mESCs, immunoblotting for RNF12 phospho-Ser214 and total RNF12", "assay_type": "cell-based, mouse", "settings": "10 μM, 4 h"}, "SRPK1": {"biological_target": "SRPK1 (Homo sapiens, UniProt Q96SB4)", "assay_type": "biochemical", "settings": "in vitro", "procedure": "Cells were lysed, and 1.5 mg of protein immunoprecipitated with 2 μg of SRPK1 or SRPK2 antibodies (BD Biosciences). Immunoprecipitates were then washed with lysis buffer supplemented with 500 mM NaCl and half of the sample was resuspended in loading buffer. The remainder was subjected to in vitro phosphorylation assay containing 0.5 μg RNF12 and 2 mM ATP in kinase buffer (50 mM Tris-HCl [pH 7.5], 0.1 mM EGTA, 10 mM MgCl2, 2 mM DTT) and incubated at 30°C for 30 min. […] For radioactive in vitro kinase assays, reactions were supplemented with 1 μCi γ-^32P ATP. Reactions were incubated at 30°C for 30 min in presence or absence of inhibitor as indicated and samples subjected to polyacrylamide electrophoresis and immunoblot or Coomassie blue staining and signal detected via ECL, infrared detection or autoradiography.\nSupplemental Figure Legends\n(Related to Figure 1). (A) Wild-type (WT) mESCs were analysed for protein copy number by absolute quantitative proteomics. […]\nData are represented as mean ± S.E.M. (n=3). […] ND = not detected. (B) Inhibition of RNF12 phosphorylation in vitro by SRPK1 and SRPK2 in the presence of varying concentrations of the indicated SRPK inhibitors was determined by immunoblotting for RNF12 phospho-Ser214 (Left). […] Immunoblots were quantified to generate SRPK inhibitor dose-response curves for inhibition of RNF12 phosphorylation by SRPK1 and SRPK2 in vitro (Right). […]"}, "RNF12 SR-motif [1]": {"tested_on": "RNF12 SR-motif", "settings": "hiPSCs (CHiPS4 cell line), 10 μM, 4 h", "procedure": "Phos-tag analyses were performed by loading protein samples containing 10 mM MnCl2 in 8% polyacrylamide gels containing 50 μM Phos-tag reagent (MRC-PPU reagents and services) and 0.1 mM MnCl2. After electrophoresis, gels were washed three times for 10 mins in Transfer buffer (48 mM Tris, 39 mM Glycine, 20% Methanol) supplemented with 20 mM EDTA. Proteins were then transferred to Nitrocellulose membranes, blocked and probed with the indicated antibodies. All protein signals were quantified using Image Studio (LI-COR Biosciences) or Image Lab software (Bio-Rad). Primary antibodies are listed in the Key Resource Table."}, "RNF12 SR-motif [2]": {"tested_on": "RNF12 SR-motif", "assay": "RNF12 SR-motif phosphorylation in mESCs by phos-tag immunoblotting", "assay_type": "cell-based, mouse"}},
  "note": "Read-outs that look alike come from different tables or passages of the source.",
  "data": [
    {"smiles": "CCc1cc2c(cc1-c1cccc(S(=O)(=O)F)c1)C(C)(C)c1[nH]c3cc(C#N)ccc3c1C2=O", "note": "[SRPKIN-1]", "values": [
      {"measurement": "RNF12 phospho-Ser214/total ratio", "setting": "RNF12 phospho-Ser214", "value": "greatest impact"},
      {"measurement": "fold more potent toward SRPK1 than SPHINX31", "setting": "SRPK1", "value": "~10", "unit": "fold"},
      {"measurement": "fold more potent toward SRPK1 than SRPIN-340", "setting": "SRPK1", "value": "~300", "unit": "fold"},
      {"measurement": "RNF12 SR-motif phosphorylation (phos-tag)", "setting": "RNF12 SR-motif [1]", "value": "promotes RNF12 SR-motif dephosphorylation"},
      {"measurement": "time to RNF12 SR-motif de-phosphorylation (within)", "setting": "RNF12 SR-motif [2]; HA-RNF12 expressing Rlim-/y mESCs, 10 μM", "value": "1 to 2", "unit": "h"},
      {"measurement": "RNF12 SR-motif phosphorylation in washout assays", "setting": "RNF12 SR-motif [2]; mESCs pre-treated with 5 μM for 3 h, media changed, further 5 h", "value": "inhibited"},
      {"measurement": "RNF12 SR-motif phosphorylation (phos-tag)", "setting": "RNF12 SR-motif [2]; mESCs, 10 μM, 4 h", "value": "major dephosphorylation"}
    ]}
  ]
}
